# Assay results published in article PMC8895762 (BMC Complementary Medicine and Therapies, 2022).
# Test system: RAW 264.7 macrophages
# Test: CCK-8 cell viability assay
# Type: cell-based, Murine
# Settings: 40 μM, 24 h, mean ± SD, n = 3
# Experimental: Murine RAW 264.7 macrophages were purchased from the American Tissue Culture Collection (Manassas, USA). These cells were incubated in DMEM supplemented with 10% FBS, 100 U/mL penicillin and 100 U/mL streptomycin in humidified 5% carbon dioxide (CO2) at 37 °C [16, 17].
# The effects of 19 constituents on the viability of RAW 264.7 macrophages were assessed by CCK-8 assay. Prior to treatment, RAW 264.7 macrophages (5 × 10^3 cells/well) were seeded into 96-well plates and incubated for 24 h. All cultured cells were treated with or without 19 compounds at a concentration of 40 μM at 37 °C for 24 h. After incubation, 10 μL of CCK-8 solution was added to each well and incubated at 37 °C. After 2 h, the absorbance of each well was measured at 450 nm in a microplate reader. Cell viability was calculated using the following formular:
# Cell viability (%) = Asample/Acontrol × 100, where Asample and Acontrol are the absorbance of cells treated with the compound and untreated cells, respectively. Moreover, the latter is expressed as 100% cell viability.
substance,measurement,value
kaempferol-3-O-rutinoside [Compound 11],Cell viability (%),90.87 ± 5.45%
